Tested on: patients chronically infected with HBV
Assay: 4-week clinical treatment combining weekly sub-cutaneous pegylated IFNα2a (PEG-IFN) with daily oral EYP001a or placebo: treatment emergent adverse events

## INF: weekly sub-cutaneous injections of pegylated IFNα2a, PEG-IFN
Placebo + INF, subjects n = 8, % of total non-flu like TEAE (77) of all arms
  Non-Flu like TEAE (%): (22.1%)
overall, all 25 patients (PEG-IFN with EYP001a or placebo), 4-week treatment
  patients who developed flu-like adverse events related to IFN (number): 21 patients
overall, of all 25 patients (PEG-IFN with EYP001a or placebo), 4-week treatment
  patients who developed flu-like adverse events related to IFN (%): 84%

From patent US20220241376A1, “METHOD FOR DECREASING ADVERSE-EFFECTS OF INTERFERON” (ENYO PHARMA, priority 2019, published 2022)
